Entries after “also recorded” stand apart in the source; their conditions may differ. Read-outs that look alike come from different tables or passages of the source.
How the values were obtained:
[1] = for Change of HPLC purity in stability test: 10 days at 60° C., 25° C. RH90%±5%, or 4500 lux±500 lux
[2] = Equilibrium solubility test at 37° C.; settings: for Equilibrium solubility pH 3.5: pH=3.5 ammonium acetate/ammonia buffer solution
[3] = in vivo pharmacokinetic studies in Beagle dogs; settings: single oral administration of the drug capsule; for CMAX and AUC of valsartan, AHU377 and LBQ657 relative to the comparative example: P<0.05
Source text: Example 1 in capsules: the capsules containing Example 1, provided by the Department of Drug Formulations of Chengdu Eastern Pharma Co., dosage 312 μmol/capsule, Lot: 150901;
Example 3 in capsules: the capsules containing Example 3, provided by the Department of Drug Formulations of Chengdu Eastern Pharma Co., dosage 312 μmol/capsule, Lot: 150901;
Example 5 in capsules: the capsules containing Example 5, provided by the Department of Drug Formulations of Chengdu Eastern Pharma Co., dosage 312 μmol/capsule, Lot: 150901;
Four male Beagle dogs, body weight 8±2 kg, age 10-12 months, purchased from Chengdu Dashuo Biological Technology Co., Ltd., Certificate of Conformity: SCXK (Sichuan) 2013-24.
The drug administration period: using Beagle dogs in a 4×4 crossover pilot study. There is a total of 4 test cycles. In each cycle 4 dogs were administered 4 different drug capsules. After each cycle, paused for two days to let the medications fully metabolize before starting the next experiment cycle.
In every cycle, 1 ml blood sample was collected in EDTA-K2 tubes at 5 min, 15 min, 0.5 h, 1 h, 2 h, 3 h, 4 h, 6 h, 8 h, 10 h, 24 h, 36 h, 48 h prior to and after administering the single dosage into the forelimb or hind limb veins and centrifuged for 10 min at 3000 r/min. Plasma was separated and kept in a freezer at −70° C.
Evenly mixing 50 μl plasma with 5 μl of a working solution or a blank diluent, adding 150 μl precipitating agent acetonitrile that contains an internal standard, vortex mixed for 2 minutes, centrifuged for 5 minutes at 12000 rpm. 100 μl supernatant was mixed with 100 μl pure water. The injection sample size was 10 μl.
SPSS was used for statistical analysis and experimental data was expressed with the mean plus or minus standard deviation. Comparison between the multiple sets of data used analysis of variance (ANOVA), while Least Significant Difference (LSD) Test was employed to compare two data points.

[4] = Hygroscopy test (25±1° C., RH 80%±2%, 24 hours); type: physicochemical; settings: for Appearance at Hour Twenty-Four / Weight Increase: 24 hours
Source text: The results are in Table XII.

Compound | Purity, AHU377 ([1]; Humidity 25° C. RH90%, 0 days) | Purity, Valsartan ([1]; Humidity 25° C. RH90%, 0 days) | Purity, AHU377 ([1]; Humidity 25° C. RH90%, 5 days) | Purity, AHU377 ([1]; Humidity 25° C. RH90%, 10 days) | Purity, AHU377 ([1]; Light 4500Lux, 0 days) | Purity, Valsartan ([1]; Light 4500Lux, 0 days) | Purity, AHU377 ([1]; Light 4500Lux, 5 days) | Purity, AHU377 ([1]; Light 4500Lux, 10 days) | Purity, AHU377 ([1]; Temperature 60° C., 0 days) | Purity, Valsartan ([1]; Temperature 60° C., 0 days) | Purity, AHU377 ([1]; Temperature 60° C., 5 days) | Purity, AHU377 ([1]; Temperature 60° C., 10 days) | Appearance at Hour Twenty-Four [4] | Weight Increase [4] [%] | Appearance at Hour Zero [4] | Change of HPLC purity in stability test [1] | Purity, Valsartan ([1]; Humidity 25° C. RH90%, 5 days) | Purity, Valsartan ([1]; Humidity 25° C. RH90%, 10 days) | Purity, Valsartan ([1]; Light 4500Lux, 5 days) | Purity, Valsartan ([1]; Light 4500Lux, 10 days) | also measured
CCCCC(=O)N(Cc1ccc(-c2ccccc2-c2nn[n-]n2)cc1)C(C(=O)[O-])C(C)C.CCCCC(=O)N(Cc1ccc(-c2ccccc2-c2nn[n-]n2)cc1)C(C(=O)[O-])C(C)C.CCOC(=O)C(C)CC(Cc1ccc(-c2ccccc2)cc1)NC(=O)CCC(=O)[O-].CCOC(=O)C(C)CC(Cc1ccc(-c2ccccc2)cc1)NC(=O)CCC(=O)[O-].O.O.O.O.O.[Na+].[Na+].[Na+].[Na+].[Na+].[Na+] (stereo not drawn) [Comparative Example, reference compound] | 62.91 | 37.09 | 62.89 | 62.91 | 62.91 | 37.09 | 62.84 | 62.81 | 62.91 | 37.09 | 62.81 | 62.76 |  |  |  |  |  |  |  |  | 
[3-((1S, 3R)-1-biphenyl-4-ylmethyl-3-ethoxycarbonyl-1-butylcarbamoyl)propionate-(S)-3′-methyl-2′-(pentanoyl {2″-(tetrazol-5-ylate)biphenyl-4′-ylmethyl}amino)butyrate]6Ca2Na14.15H2O [Example 3] | 62.87 | 37.13 | 62.82 | 62.77 | 62.87 | 37.13 | 62.84 | 62.82 | 62.87 | 37.13 | 62.81 | 62.77 | Off white powder | 4.55 | Off white powder | only slight decreases in purities | 37.12 | 37.08 | 37.09 | 37.07 | Equilibrium solubility pH 1.0 ([2]; pH=1.0 (0.1 mol/L) hydrochloric acid): 0.06 mg/mL; TMAX of valsartan relative to the comparative example [3]: moved significantly earlier; CMAX and AUC of valsartan, AHU377 and LBQ657 relative to the comparative example [3]: clearly higher than that of the comparative sample; Purity, Valsartan ([1]; Temperature 60° C., 5 days): 37.11; Purity, Valsartan ([1]; Temperature 60° C., 10 days): 37.08
[3-((1S, 3R)-1-biphenyl-4-ylmethyl-3-ethoxycarbonyl-1-butylcarbamoyl)propionate-(S)-3′-methyl-2′-(pentanoyl {2″-(tetrazol-5-ylate)biphenyl-4′-ylmethyl}amino)butyrate]6Ca2Na14.15H2O [Example 4] | 62.89 | 37.11 | 62.87 | 62.84 | 62.89 | 37.11 | 62.86 | 62.81 | 62.89 | 37.11 | 62.82 |  | Off white powder | 4.51 | Off white powder | only slight decreases in purities | 37.10 | 37.08 | 37.08 | 37.05 | Purity, Valsartan ([1]; Temperature 60° C., 5 days): 37.07; Purity, Valsartan ([1]; Temperature 60° C., 10 days): 37.01
[3-((1S, 3R)-1-biphenyl-4-ylmethyl-3-ethoxycarbonyl-1-butylcarbamoyl)propionate-(S)-3′-methyl-2′-(pentanoyl {2″-(tetrazol-5-ylate)biphenyl-4′-ylmethyl}amino)butyrate]6Ca3Na12.15H2O [Example 5] | 62.92 | 37.08 | 62.86 | 62.82 | 62.92 | 37.08 | 62.86 | 62.79 | 62.92 | 37.08 | 62.83 | 62.72 | Off white powder | 2.12 | Off white powder | only slight decreases in purities | 36.99 | 37.01 | 37.06 | 36.98 | CMAX and AUC of valsartan, AHU377 and LBQ657 relative to the comparative example [3]: clearly higher than that of the comparative sample; Purity, Valsartan ([1]; Temperature 60° C., 5 days): 37.04; Purity, Valsartan ([1]; Temperature 60° C., 10 days): 36.97
[3-((1S, 3R)-1-biphenyl-4-ylmethyl-3-ethoxycarbonyl-1-butylcarbamoyl)propionate-(S)-3′-methyl-2′-(pentanoyl {2″-(tetrazol-5-ylate)biphenyl-4′-ylmethyl}amino)butyrate]6Ca3Na12.15H2O [Example 6] | 62.90 | 37.10 | 62.83 | 62.78 | 62.90 | 37.10 | 62.81 | 62.73 | 62.90 | 37.10 | 62.82 | 62.77 | maintained its appearance; also recorded: Off white powder | 2.09 | Off white powder | only slight decreases in purities | 37.03 | 36.96 | 37.04 | 36.96 | Equilibrium solubility pH 3.5 [2]: 0.45 mg/mL; Equilibrium solubility Water ([2]; water): 3740 µg/mL; Purity, Valsartan ([1]; Temperature 60° C., 5 days): 37.01; Purity, Valsartan ([1]; Temperature 60° C., 10 days): 36.95
[3-((1S, 3R)-1-biphenyl-4-ylmethyl-3-ethoxycarbonyl-1-butylcarbamoyl)propionate-(S)-3′-methyl-2′-(pentanoyl {2″-(tetrazol-5-ylate)biphenyl-4′-ylmethyl}amino)butyrate]6CaNa16.15H2O [Example 2] | 62.88 | 37.12 | 62.86 | 62.82 | 62.88 | 37.12 | 62.84 | 62.80 | 62.88 | 37.12 | 62.89 | 62.77 | Off White powder | 6.98 | Off white powder | only slight decreases in purities | 37.11 | 37.08 | 37.11 | 37.08 | Equilibrium solubility pH 3.5 [2]: 0.51 mg/mL; Purity, Valsartan ([1]; Temperature 60° C., 5 days): 37.11; Purity, Valsartan ([1]; Temperature 60° C., 10 days): 37.06
[3-((1S, 3R)-1-biphenyl-4-ylmethyl-3-ethoxycarbonyl-1-butylcarbamoyl)propionate-(S)-3′-methyl-2′-(pentanoyl{2″-(tetrazol-5-ylate)biphenyl-4′-ylmethyl}amino)butyrate]6CaNa16.15H2O [Example 1] | 62.89 | 37.11 | 62.84 | 62.83 | 62.89 | 37.11 | 62.85 | 62.81 | 62.89 | 37.11 | 62.87 | 62.84 | Off white powder | 6.95 | Off white powder | only slight decreases in purities | 37.12 | 37.10 | 37.13 | 37.09 | Equilibrium solubility pH 3.5 [2]: 0.49 mg/mL; TMAX of valsartan relative to the comparative example [3]: moved significantly earlier; CMAX and AUC of valsartan, AHU377 and LBQ657 relative to the comparative example [3]: clearly higher than that of the comparative sample; Purity, Valsartan ([1]; Temperature 60° C., 5 days): 37.09; Purity, Valsartan ([1]; Temperature 60° C., 10 days): 37.07
